# Biological target: CB1 receptor (Mus musculus, UniProt P47746)
# Amino acid sequences for entries named in this document (tags omitted).
# UniProt P47746, whole entry: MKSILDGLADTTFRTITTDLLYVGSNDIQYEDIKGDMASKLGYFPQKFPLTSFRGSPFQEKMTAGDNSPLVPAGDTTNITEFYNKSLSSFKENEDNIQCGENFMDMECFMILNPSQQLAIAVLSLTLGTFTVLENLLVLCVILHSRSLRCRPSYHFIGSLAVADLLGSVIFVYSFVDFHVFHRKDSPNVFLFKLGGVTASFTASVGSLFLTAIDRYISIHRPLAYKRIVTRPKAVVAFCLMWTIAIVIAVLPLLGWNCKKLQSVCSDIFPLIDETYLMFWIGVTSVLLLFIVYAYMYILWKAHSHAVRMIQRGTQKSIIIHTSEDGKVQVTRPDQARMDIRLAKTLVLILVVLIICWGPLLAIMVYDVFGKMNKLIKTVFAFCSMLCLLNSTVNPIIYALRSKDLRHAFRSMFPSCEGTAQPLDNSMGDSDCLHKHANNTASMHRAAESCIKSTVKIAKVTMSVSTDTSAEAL
# Test: biochemical
smiles,measurement,value
"CCCCCc1cc(O)c2c(c1)OC(C)(C)[C@@H]1CCC(C)=CC21 (some centres unmarked) [∆^9-THC, ∆^9-tetrahydrocannabinol]",IC50,10.2 nM
same,Ki,6.62 nM

# — publication PMC6314990, “∆^9-Tetrahydrocannabinol, a major marijuana component, enhances the anesthetic effect of pentobarbital through the CB1 receptor” (Forensic Toxicology, 2018)
